Measured values taken from patent US10328003B2, “Solubilizing agents for active or functional organic compounds” (ISP INVESTMENTS LLC, priority 2015, dated 2019).

Description: Different samples of the current solubilizing compound cycloalkyl toluate was combined with available sunscreens Escalol S, avobenzone and oxybenzone at 25° C. […] Solubility was checked for cyclohexyl ester in various sunscreen actives such as bemotrizinol, ethylhexyl triazone, avobenzone & benzophenone-3 in comparison to phenethyl benzoate.

- Solubility @ 25° C. Avobenzone: 12
- Solubility @ 25° C. Escalol S: 13
- Solubility @ 25° C. Oxybenzone: 15
- Solubility percentages of sunscreen active in the solubilizer: 4-15%
Substance: C12-15 alkyl benzoate [reference compound]
